## scFv variants of Ab-91 (heavy chain) against a SARS-CoV-2 spike peptide

The target is the same throughout: PDVDLGDISGINAS, from the HR2 region of SARS-CoV-2 spike.

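The starting antibody came from a phage panning campaign against this peptide. AAYL51 was designed without a model: most single CDR substitutions and a random sample of double and triple ones. In AlphaSeq, yeast of one mating type display the scFv and yeast of the other type display the target. The frequency of each diploid, read from paired DNA barcodes, reflects how well the two displayed proteins bind. The ratio of observed to expected reads was calibrated, replicate by replicate, on BCL2-family standards whose Kd was known from biolayer interferometry. There are three technical replicates.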

The variants keep the light chain, the linker and the frameworks of Ab-91 (scFv order VL, a (GGGGS)3 linker, VH).
VL: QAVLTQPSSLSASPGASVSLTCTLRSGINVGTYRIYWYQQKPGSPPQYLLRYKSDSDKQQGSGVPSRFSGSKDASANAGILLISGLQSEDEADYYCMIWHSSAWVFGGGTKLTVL
VH: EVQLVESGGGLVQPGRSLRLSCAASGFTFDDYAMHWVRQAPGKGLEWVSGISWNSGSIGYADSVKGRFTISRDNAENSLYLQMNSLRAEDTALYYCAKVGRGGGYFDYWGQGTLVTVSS

Changes read parent residue, position, new residue, counted from the first residue of the VH shown. All variants listed here change H35 of the VH, counted from its first residue. Numbers give log10(Kd / nM), so 0 is 1 nM and 3 is 1 µM. Smaller is tighter. Averages over replicates are reported, and they cover detected replicates only. "ND" marks a missing value. The strain was present, yet no cells mated with the target were sequenced in that replicate, which points to weak or no binding. Entries are sorted by rising average, undetected variants last. Three control strains display no target. For library AAYL51, 21% of the pairings with them gave a signal, with a median of 4.54 and one signal in twenty below 3.26, so weak values seen in few replicates may be background.

With M34G+H35M+V64F the result was ND, ND, 2.32. With D31W+H35V+R101E the result was ND, 3.44, ND. With H35R+S52Y+I58Q the result was ND, 3.58, ND. With H35I+S63L+K65N the result was ND, 3.70, ND. The variant H35E+Y60G showed ND, 3.71, ND. The variant F27C+H35C gave ND, ND, 4.10. With T28N+H35C+G103I the result was 4.22, ND, ND.

For H35G+S57R+G103R, the assay gave 4.51, ND, ND. For H35D+S55R+K65L, the assay gave 3.54, 5.50, ND (mean 4.52). The variant D31W+H35P+W53K showed 4.39, 4.78, 5.24 (mean 4.80). The variant A33G+H35I+A61P showed 4.89, 4.19, 5.53 (mean 4.87). The variant H35N+I51K+S55Y gave 5.15, 4.72, ND (mean 4.93). With H35W+S63C+G100S the result was 4.47, 4.74, 5.66 (mean 4.96). The variant H35Q+I58Q+D107G gave 5.28, 4.68, ND (mean 4.98).

The variant H35L+S57H+F106H gave 4.73, 5.72, ND (mean 5.22). The variant M34Y+H35P+F106C showed 4.80, 6.20, ND (mean 5.50). With H35M+I58M+G100M the result was ND, ND, ND. For A33L+H35A+F106L, the assay gave ND, ND, ND. For H35Y+K65V+F106Y, the assay gave ND, ND, ND. The variant H35Y+N54W+S55C gave ND, ND, ND. With H35Y+A61Q+V64T the result was ND, ND, ND.

For H35K+K65D+G103M, the assay gave ND, ND, ND. With F27K+H35R+Y60A the result was ND, ND, ND. The variant H35R+W53V+I58G gave ND, ND, ND. With H35L+D62A+G100H the result was ND, ND, ND. The variant D31I+H35I+V99P showed ND, ND, ND. For G26V+H35T+G100P, the assay gave ND, ND, ND. With H35P+G56N+F106Y the result was ND, ND, ND.

The variant H35V+S52Y+N54Y gave ND, ND, ND. With H35T+R101H+G102A the result was ND, ND, ND. For H35W+W53M+G56P, the assay gave ND, ND, ND.

Extract of 5 entries:

{"changes": "H35K+K65D+G103M", "log10 Kd, replicates": "ND, ND, ND", "mean, log10 nM": "ND"}
{"changes": "D31W+H35P+W53K", "log10 Kd, replicates": "4.39, 4.78, 5.24", "mean, log10 nM": "4.80"}
{"changes": "H35L+S57H+F106H", "log10 Kd, replicates": "4.73, 5.72, ND", "mean, log10 nM": "5.22"}
{"changes": "G26V+H35T+G100P", "log10 Kd, replicates": "ND, ND, ND", "mean, log10 nM": "ND"}
{"changes": "H35I+S63L+K65N", "log10 Kd, replicates": "ND, 3.70, ND", "mean, log10 nM": "3.70"}

Source: Engelhart et al. 2022 (doi:10.1038/s41597-022-01779-4), MIT Lincoln Laboratory and A-Alpha Bio; data file from the FLAb repository.